The record followed here is ChEMBL document CHEMBL1127604 (J Med Chem, 1994).

The chains behind the UniProt entries cited, without tags or fusion partners.
UniProt P19327, whole entry: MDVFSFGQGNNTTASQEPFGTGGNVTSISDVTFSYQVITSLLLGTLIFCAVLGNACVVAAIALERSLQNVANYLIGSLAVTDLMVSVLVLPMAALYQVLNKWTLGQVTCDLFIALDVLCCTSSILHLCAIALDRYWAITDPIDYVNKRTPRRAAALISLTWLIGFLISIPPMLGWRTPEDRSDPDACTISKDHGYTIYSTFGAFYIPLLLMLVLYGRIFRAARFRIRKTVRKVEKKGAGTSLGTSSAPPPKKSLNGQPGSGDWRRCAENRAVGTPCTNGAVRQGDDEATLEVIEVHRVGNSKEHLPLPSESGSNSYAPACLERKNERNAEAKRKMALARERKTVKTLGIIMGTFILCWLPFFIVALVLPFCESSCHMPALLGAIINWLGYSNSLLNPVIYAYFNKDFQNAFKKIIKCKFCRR

The experiment deals with 5-hydroxytryptamine receptor 1A (Rattus norvegicus, UniProt P19327). The experiment in a line: Inhibition of forskolin stimulated adenylate cyclase at 5-hydroxytryptamine 1A receptor. It is filed as functional.

In the case of `NCCc1c[nH]c2ccc(O)cc12` [SEROTONIN], the midpoint of the response, the EC50, lay at 10 nM.
